Experiments:
[1] = target: human SIRT3 (118-399 aa) (human) (UniProt Q9NTG7)
[2] = target: human SIRT3 (118-399 aa) (human) (UniProt Q9NTG7); assay: ITC; 40 μL of 2 mM lactyl peptide (needle) titrated in 20 injections into 200 μL of 30 μM Sirtuin (cell); 25°C; 20 μM Tris (so in the source) pH 7.5, 150 mM NaCl

Amino acid sequences for entries named in this document (tags omitted). Residues count along the entry.
UniProt Q9NTG7, 118-399: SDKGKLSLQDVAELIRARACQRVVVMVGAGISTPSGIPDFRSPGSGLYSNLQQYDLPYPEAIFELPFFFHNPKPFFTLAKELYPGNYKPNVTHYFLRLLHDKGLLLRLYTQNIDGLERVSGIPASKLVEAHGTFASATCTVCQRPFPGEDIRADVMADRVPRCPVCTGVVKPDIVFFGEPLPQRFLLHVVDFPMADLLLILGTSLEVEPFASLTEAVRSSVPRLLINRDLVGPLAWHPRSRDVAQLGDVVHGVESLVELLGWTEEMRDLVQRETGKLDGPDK

Row | KM of delactylation of the H4K16la peptide by SIRT3 (HPLC, Lineweaver-Burk; 200 nM SIRT3, 10-200 μM peptide, 37°C; the LC peptide carries added tryptophans at both ends) [1] [µM] | fold affinity against the lactylated L-lysine peptide [2] [fold] | Substance
1 | 143 |  | H4K16la peptide
2 |  | 2 | H4K16la(D) peptide

— PMC10504495, “Identification of SIRT3 as an eraser of H4K16la” (iScience, 2023)
